Test: GSH reactivity screen (mercury orange fluorescence, 96-well)
Type: physicochemical
Conditions: test compound with 200 μM GSH, 1 h at room temperature; no metabolic activation, no glutathione transferase

Substance: 4-chlorol-3-nitrotoluene
- result in the GSH screen (in words): non-reactive
